Source: US20160024487

Tests used:
[1] = tested on: Lys(Dnp)-ATNATYKPRIVGG-Lys(Abz)
[2] = tested on: Lys(Dnp)-ATNATFDPRIVGG-Lys(Abz)
[3] = tested on: Lys(Dnp)-ATNATX4X3PRIVGG-Lys(Abz), X4 = N, X3 = V
[4] = tested on: Lys(Dnp)-ATNATX4X3PRIVGG-Lys(Abz), X4 = H, X3 = T
[5] = tested on: Lys(Dnp)-ATNATITPRIVGG-Lys(Abz)
[6] = tested on: Lys(Dnp)-ATNATX4X3PRIVGG-Lys(Abz), X4 = K, X3 = F
[7] = tested on: Lys(Dnp)-ATNATQFPRIVGG-Lys(Abz)
[8] = tested on: Lys(Dnp)-ATNATMSPRIVGG-Lys(Abz)
[9] = tested on: Lys(Dnp)-ATNATFHPRIVGG-Lys(Abz)
[10] = tested on: Lys(Dnp)-NRLAAALGIRIVGG-Lys(Abz)
[11] = tested on: Lys(Dnp)-ATNATSKPRIVGG-Lys(Abz)
[12] = tested on: Lys(Dnp)-ATNATNSPRIVGG-Lys(Abz)
[13] = tested on: Lys(Dnp)-ATNATVRPRIVGG-Lys(Abz)
[14] = tested on: Lys(Dnp)-ATNATLRPRIVGG-Lys(Abz)
[15] = tested on: Lys(Dnp)-ATNATMLPRIVGG-Lys(Abz)
[16] = tested on: Lys(Dnp)-ATNATIAPRIVGG-Lys(Abz)
[17] = tested on: Lys(Dnp)-ATNATLVPRIVGG-Lys(Abz)
[18] = tested on: Lys(Dnp)-EDSDRAIEGRIVGG-Lys(Abz)
[19] = tested on: Lys(Dnp)-ATNATLEPRIVGG-Lys(Abz)
[20] = tested on: Lys(Dnp)-ATNATNHPRIVGG-Lys(Abz)
[21] = tested on: Lys(Dnp)-ATNATYHPRIVGG-Lys(Abz)
[22] = tested on: Lys(Dnp)-ATNATMTPRIVGG-Lys(Abz)
[23] = tested on: Lys(Dnp)-ATNATSRPRIVGG-Lys(Abz)
[24] = tested on: Lys(Dnp)-ATNATDWPRIVGG-Lys(Abz)
[25] = tested on: Lys(Dnp)-ATNATISPRIVGG-Lys(Abz)
[26] = tested on: Lys(Dnp)-ATNATLPPRIVGG-Lys(Abz)
[27] = tested on: Lys(Dnp)-ATNATEWPRIVGG-Lys(Abz)
[28] = tested on: Lys(Dnp)-PDNIAAWYLRIVGG-Lys(Abz)
[29] = tested on: Lys(Dnp)-ATNATKPPRIVGG-Lys(Abz)
[30] = tested on: Lys(Dnp)-ATNATEEPRIVGG-Lys(Abz)
[31] = tested on: Lys(Dnp)-ATNATX4X3PRIVGG-Lys(Abz), X4 = H, X3 = Y
[32] = tested on: Lys(Dnp)-ATNATVIPRIVGG-Lys(Abz)
[33] = tested on: Lys(Dnp)-ATNATFYPRIVGG-Lys(Abz)
[34] = tested on: Lys(Dnp)-ATNATTSPRIVGG-Lys(Abz)
[35] = tested on: Lys(Dnp)-ATNATHPPRIVGG-Lys(Abz)
[36] = tested on: Lys(Dnp)-ATNATMFPRIVGG-Lys(Abz)
[37] = tested on: Lys(Dnp)-ATNATSMPRIVGG-Lys(Abz)
[38] = tested on: Lys(Dnp)-ATNATHWPRIVGG-Lys(Abz)
[39] = tested on: Lys(Dnp)-ATNATMAPRIVGG-Lys(Abz)
[40] = tested on: Lys(Dnp)-ATNATX4X3PRIVGG-Lys(Abz), X4 = S, X3 = F
[41] = tested on: Lys(Dnp)-ATNATVVPRIVGG-Lys(Abz)
[42] = tested on: Lys(Dnp)-ATNATSFPRIVGG-Lys(Abz)

Human plasma purified α-thrombin gave a Functional Selectivity (Specificity*FIIa kcat/KM) [1] of 990000, a kcat/KM [2] of 1300 M⁻¹ s⁻¹ and an FIIa kcat/KM [3] of 550 M⁻¹ s⁻¹. It also gave a Specificity Ratio (FIIa/FXa) [3] of 32, an FIIa kcat/KM [4] of 1500 M⁻¹ s⁻¹ and a Specificity Ratio (FIIa/FXa) [4] of 30. For the same substance, the FIIa kcat/KM [5] was 32000 M⁻¹ s⁻¹, the Functional Selectivity (Specificity*FIIa kcat/KM) [5] was 1.2e+06 and the kcat/KM [5] was 32000 M⁻¹ s⁻¹. For the same substance, the FIIa kcat/KM [6] was 750 M⁻¹ s⁻¹, the Specificity Ratio (FIIa/FXa) [6] was 22 and the FIIa kcat/KM [7] was 3600 M⁻¹ s⁻¹. It also gave a Specificity Ratio (FIIa/FXa) [7] of 25, a kcat/KM [7] of 3600 M⁻¹ s⁻¹ and an FIIa kcat/KM [8] of 18000 M⁻¹ s⁻¹. It also gave a Specificity Ratio (FIIa/FXa) [8] of 33, a kcat/KM [8] of 18000 M⁻¹ s⁻¹ and an FIIa kcat/KM [9] of 17000 M⁻¹ s⁻¹. For the same substance, the Functional Selectivity (Specificity*FIIa kcat/KM) [9] was 2e+06, the kcat/KM [9] was 17000 M⁻¹ s⁻¹ and the FIIa kcat/KM [10] was 720 M⁻¹ s⁻¹. For the same substance, the Functional Selectivity (Specificity*FIIa kcat/KM) [10] was 1500, the Specificity Ratio (FIIa/FXa) [10] was 2 and the kcat/KM [10] was 720 M⁻¹ s⁻¹. The FIIa kcat/KM [11] was 1100 M⁻¹ s⁻¹, the Specificity Ratio (FIIa/FXa) [11] was 85 and the kcat/KM [11] was 1100 M⁻¹ s⁻¹. It also gave a kcat/KM [12] of 640 M⁻¹ s⁻¹, an FIIa kcat/KM [13] of 16000 M⁻¹ s⁻¹ and a Specificity Ratio (FIIa/FXa) [13] of 37. It also gave a kcat/KM [13] of 16000 M⁻¹ s⁻¹, an FIIa kcat/KM [14] of 45000 M⁻¹ s⁻¹ and a Functional Selectivity (Specificity*FIIa kcat/KM) [14] of 3.3e+06. For the same substance, the kcat/KM [14] was 45000 M⁻¹ s⁻¹, the FIIa kcat/KM [15] was 11000 M⁻¹ s⁻¹ and the Specificity Ratio (FIIa/FXa) [15] was 20. It also gave a kcat/KM [15] of 11000 M⁻¹ s⁻¹, an FIIa kcat/KM [16] of 8700 M⁻¹ s⁻¹ and a Specificity Ratio (FIIa/FXa) [16] of 14. The kcat/KM [16] was 8700 M⁻¹ s⁻¹, the Functional Selectivity (Specificity*FIIa kcat/KM) [17] was 2.4e+06 and the FIIa kcat/KM [18] was 0 M⁻¹ s⁻¹. The Functional Selectivity (Specificity*FIIa kcat/KM) [18] was 0, the Specificity Ratio (FIIa/FXa) [18] was 0 and the FIIa kcat/KM [19] was 14000 M⁻¹ s⁻¹. It also gave a Specificity Ratio (FIIa/FXa) [19] of 20, a kcat/KM [19] of 14000 M⁻¹ s⁻¹ and a kcat/KM [20] of 660 M⁻¹ s⁻¹. For the same substance, the FIIa kcat/KM [21] was 4800 M⁻¹ s⁻¹, the Specificity Ratio (FIIa/FXa) [21] was 114 and the kcat/KM [21] was 4800 M⁻¹ s⁻¹. It also gave an FIIa kcat/KM [22] of 32000 M⁻¹ s⁻¹, a Functional Selectivity (Specificity*FIIa kcat/KM) [22] of 1.1e+07 and a kcat/KM [22] of 32000 M⁻¹ s⁻¹. For the same substance, the kcat/KM [23] was 2300 M⁻¹ s⁻¹, the FIIa kcat/KM [24] was 14 M⁻¹ s⁻¹ and the Functional Selectivity (Specificity*FIIa kcat/KM) [24] was 28. For the same substance, the Specificity Ratio (FIIa/FXa) [24] was 2, the kcat/KM [24] was 14 M⁻¹ s⁻¹ and the FIIa kcat/KM [25] was 14000 M⁻¹ s⁻¹. For the same substance, the Specificity Ratio (FIIa/FXa) [25] was 23, the kcat/KM [25] was 14000 M⁻¹ s⁻¹ and the FIIa kcat/KM [26] was 11 M⁻¹ s⁻¹. For the same substance, the Functional Selectivity (Specificity*FIIa kcat/KM) [26] was 75, the Specificity Ratio (FIIa/FXa) [26] was 7 and the kcat/KM [26] was 11 M⁻¹ s⁻¹. For the same substance, the kcat/KM [27] was 390 M⁻¹ s⁻¹, the FIIa kcat/KM [28] was 98 M⁻¹ s⁻¹ and the Functional Selectivity (Specificity*FIIa kcat/KM) [28] was 660. It also gave a Specificity Ratio (FIIa/FXa) [28] of 7, a kcat/KM [28] of 98 M⁻¹ s⁻¹ and an FIIa kcat/KM [29] of 0.00056 M⁻¹ s⁻¹. The Functional Selectivity (Specificity*FIIa kcat/KM) [29] was 3.6e-08, the Specificity Ratio (FIIa/FXa) [29] was 0 and the kcat/KM [29] was 0.00056 M⁻¹ s⁻¹. For the same substance, the kcat/KM [30] was 14 M⁻¹ s⁻¹, the FIIa kcat/KM [31] was 1300 M⁻¹ s⁻¹ and the Specificity Ratio (FIIa/FXa) [31] was 31. For the same substance, the FIIa kcat/KM [32] was 13000 M⁻¹ s⁻¹, the Functional Selectivity (Specificity*FIIa kcat/KM) [32] was 1.4e+06 and the kcat/KM [32] was 13000 M⁻¹ s⁻¹. For the same substance, the FIIa kcat/KM [33] was 12000 M⁻¹ s⁻¹, the Functional Selectivity (Specificity*FIIa kcat/KM) [33] was 1.9e+06 and the kcat/KM [33] was 12000 M⁻¹ s⁻¹. It also gave a kcat/KM [34] of 890 M⁻¹ s⁻¹, an FIIa kcat/KM [35] of 740 M⁻¹ s⁻¹ and a Specificity Ratio (FIIa/FXa) [35] of 106. It also gave a kcat/KM [35] of 740 M⁻¹ s⁻¹, an FIIa kcat/KM [36] of 11000 M⁻¹ s⁻¹ and a Functional Selectivity (Specificity*FIIa kcat/KM) [36] of 2.1e+06. It also gave a kcat/KM [36] of 11000 M⁻¹ s⁻¹, a kcat/KM [37] of 960 M⁻¹ s⁻¹ and a kcat/KM [38] of 2800 M⁻¹ s⁻¹. The FIIa kcat/KM [39] was 12000 M⁻¹ s⁻¹, the Specificity Ratio (FIIa/FXa) [39] was 32 and the kcat/KM [39] was 12000 M⁻¹ s⁻¹. The FIIa kcat/KM [40] was 940 M⁻¹ s⁻¹, the Specificity Ratio (FIIa/FXa) [40] was 57 and the FIIa kcat/KM [41] was 11000 M⁻¹ s⁻¹. For the same substance, the Functional Selectivity (Specificity*FIIa kcat/KM) [41] was 2.2e+06, the kcat/KM [41] was 11000 M⁻¹ s⁻¹ and the kcat/KM [42] was 940 M⁻¹ s⁻¹.
